Experimental data published in patent publication US20030037354A1, “Animal model with disrupted Fgf14 gene” (priority 2001, published 2003).

How the values were obtained:
Assay type in all cases: in vivo, mouse
p44/42 MAPK (ERK) = assay: ERK activation in response to PTZ (Western blot of brain tissue); details: 75 mg/kg intraperitoneal, 90 sec after injection
Method: For ERK activation, adult (6-23 wk) Fgf14^N-βGal/N-βGal and wildtype female mice were injected intraperitoneally with 75 mg/kg PTZ or PBS. On each of three days prior to the day of the experiment, each mouse was twice injected intraperitoneally with PBS to habituate the animals to handling and injections. The animals were sacrificed 90 sec after the experimental injection (or at the onset of status epilepticus). The cerebral hemisphere and cerebellum were removed and homogenized in 500 μl of boiling lysis buffer (1% SDS; 20 μl/ml protease inhibitor cocktail solution (Sigma P8340); and 1 mM Sodium ortho-vanadate). Protein levels in supernatants wee determined by the Bradford method using a protein assay kit (Bio-Rad, Hercules, Calif.). Aliquots of each sample containing 20 μg of protein were electrophoresed on precast 12% Tris-HCI polyacrylamide gels (Bio-Rad). Proteins were visualized with a polyclonal rabbit anti-phospho-p44/42 MAPK (ERK) antibody (1:1000; Cell Signaling, Beverly, Md.) or polyclonal anti-p44/42 ERK (1:1000; Cell Signaling). The images were scanned (AGFA DuoScan), and densitometry data was analyzed using Quantity One Software (Bio-Rad).

[1] = tested on: wildtype and FGF14 deficient mice; assay: PTZ-induced seizure: latency to onset and time to death; details: 75 mg/kg and 100 mg/kg intraperitoneal
Method: Pentylenetetrazol (Sigma) was dissolved in saline (10 mg/ml) and injected intraperitoneally at a dose of either 75 or 100 mg/kg. Time to onset of tonic-clonic seizure was recorded. In the first experiment (FIG. 9), the mean age was 82 days and the sex ratio was 50% male/female. In the second experiment, the mean age was 354 days and all animals were female.

[2] = tested on: wildtype and Fgf14^N-βGal/N-βGal mice; assay: Locomotor activity response to stimulant drugs and dopamine receptor agonists; details: 0.5 or 2 mg/kg
Method: Locomotor activity. For the locomotor activity experiments, all mice were acclimated to the activity cages (28 cm long×17 cm wide×12.5 cm high) for one hour on two consecutive days. […] Mice were tested every other day and the order of drug treatment was counterbalanced across days within genotype groups. Locomotor activity was recorded every five minutes by two beams of red light placed at 10 and 19 cm along the length of the activity cage.
Statistical Analyses. The behavioral data were analyzed using analysis of variance (ANOVA) models typically containing one between-subjects variable (Genotype) and one within-subjects variable (e.g., Trials or Test Sessions). Subsequent one-way ANOVAs were used to evaluate main effects. Data from the experiments concerning drug effects on locomotor activity were analyzed by using a […] analysis of variance (ANOVA) with one between-subjects variable (Drug) being added to the above model. […] Alpha was set at p<0.05 for all analyses.

Row | Compound | ERK activation (p44/42 MAPK (ERK); cerebellum) | elevation of relative level of phospho-ERK (p44/42 MAPK (ERK); cerebral hemispheres of Fgf14^N-βGal/N-βGal mice) [fold] | latency to PTZ induced seizure relative to wildtype [1] | locomotor response (locomotor depression) [2]
1 | C1CCc2nnnn2CC1 [PTZ, pentylenetetrazol] | No change | 2 | significantly shorter latency | –
2 | CCCN1CCC[C@@H]2Cc3n[nH]cc3C[C@H]21 [quinpirole] | – | – | – | no significant response; also recorded: failed to cause locomotor depression

“Also recorded” adds a separate entry of the source.
